The values below come from patent US20080312151A1.

The test has as its target FSH receptors. Kind of test: cell-based or functional assay.

Consider “Folltropin®-V, a commercial porcine FSH preparation (Bioniche Animal Health) (from UniProt P01219 25-120; P01228 21-129) (ligand)”, for which the amount of released cAMP (in vitro bioactivity assay) was less than 1 µg/mL.

Regarding “recombinant bFSHβCTPα (single chain recombinant bovine FSH analog) (ligand)”, the amount of released cAMP (in vitro bioactivity assay) came out at 0.001 µg/mL.
